System: HepG2 human hepatocytes
Test: HepG2 MTT cytotoxicity assay
Assay type: cell-based
Settings: 1×, 2×, 4× the MIC value for 48 hours

O=C1NC(=S)N(c2ccc(Cl)cc2)C(=O)C1=Cc1ccc(-c2ccccc2C(=O)O)o1
human cell cytotoxicity / cell survival (in words): elicits human toxic effects

Source: patent US9517230B2, “Small molecule RNase inhibitors and methods of use” (UNIVERSITY OF ROCHESTER, priority 2011, dated 2016)
